Experimental data published in PubChem BioAssay AID624464 (National Center for Advancing Translational Sciences (NCATS), 2012).
This is a selection; strong and weak results do not stand in their true shares. Some salts or complexes appear as unconnected parts, following the source record. Active and inactive are the calls of the source. Cut-off read from the data, not from the text of the source: active = potentiation above about 50%; inconclusive = mostly about 30% to 49%; inactive = weaker than that.

Sequences of proteins named here, by UniProt entry; tags and fusion partners are left off.
UniProt P14416, whole entry: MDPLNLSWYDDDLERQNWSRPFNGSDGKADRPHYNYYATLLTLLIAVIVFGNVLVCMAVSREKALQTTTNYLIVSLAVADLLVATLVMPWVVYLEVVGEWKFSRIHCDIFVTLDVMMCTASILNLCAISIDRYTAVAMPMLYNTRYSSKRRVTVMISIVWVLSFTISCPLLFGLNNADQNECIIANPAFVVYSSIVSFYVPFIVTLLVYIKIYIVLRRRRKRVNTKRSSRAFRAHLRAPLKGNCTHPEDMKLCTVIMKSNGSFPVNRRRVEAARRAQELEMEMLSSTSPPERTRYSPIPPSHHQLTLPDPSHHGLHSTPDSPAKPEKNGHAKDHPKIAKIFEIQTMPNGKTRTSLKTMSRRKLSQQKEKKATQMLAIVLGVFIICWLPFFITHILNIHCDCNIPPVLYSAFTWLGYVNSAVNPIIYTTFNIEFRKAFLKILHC

The compounds below were run against D(2) dopamine receptor (Homo sapiens) (UniProt P14416) (assay: Beta-Arrestin HTS for Positive Allosteric Modulators of the Human D2 Dopamine Receptor: Potentiators). Conditions: DiscoveRx D2 beta-arrestin cells, luminescence, 90 min; active compounds read high; 100% = 57 uM dopamine signal.
Excerpt: There is great interest in identifying small molecule ligands for G-protein coupled receptors (GPCRs) as nearly 50% of all FDA-approved drugs target these important receptor proteins. […] Amongst the dopamine receptors (DARs), the D2 is arguably one of the most validated drug targets in neurology and psychiatry. For instance, all receptor-based antiparkinsonian drugs primarily work via stimulating the D2 DAR, whereas all FDA-approved antipsychotic agents are antagonists of this receptor. The D2 DAR is also therapeutically targeted in other disorders such as restless legs syndrome, tardive dyskinesia, Tourette's syndrome, and hyperprolactinemia.
To this end, a miniaturized qHTS screen was developed to be screened against the Molecular Libraries Small Molecule Repository (MLSMR). This assay seeks to identify potentiators against the D2 DAR.
NIH Molecular Libraries Probe Production Network [MLPCN]
NIH Chemical Genomics Center [NCGC]
PI Name: David Sibley, National Institutes of Neurological Disorders and Stroke
DiscoveRx D2 cells were thawed from frozen stock and seeded at 2,100 cells/ 3 uL/well media (DiscoveRx Plating Reagent 2) with MultiDrop Combi dispenser (Thermo Scientific, Logan, UT) onto white tissue culture treated 1536-well Aurora plates (Brooks Automation, Chelmsford, MA) and allowed to attach overnight at 37 deg C, 5% CO2. Next, 23 nL/well of compound solutions in DMSO were added with a pintool transfer (Kalypsis, San Diego, CA). As the positive control, 1 uL/well dopamine (EC100, 57 uM final concentration) diluted in buffer (HBSS + 10 mM HEPES + SMB + 0.1 %Tween-20) was dispensed to 1 column of each plate. EC20 (Dopamine at 50 nM final concentration) was dispensed to the rest of the plate except columns 1 &2 which were used as negative control (EC=0, buffer only), 1 uL/well as well. The cells were stimulated by compounds and dopamine for 90 minutes at 37 deg C, 5% CO2, after which 1.5 uL/well of DiscoveRx detection reagent was added with BioRAPTR FRD dispenser. The detection reagent was prepared by mixing of Galacton Star Substrate, Emerald II solution and PathHunter buffer (supplied by the assay kit) together at 1:5:19 proportion accordingly just prior to dispensing. The plates were incubated at ambient temperature for 1 hour and then the luminescent signal was read on ViewLux plate reader (PerkinElmer, Waltham, MA).

Row | SMILES | potentiation
1 | COc1cccc(C(c2nnnn2C2CCCCC2)N2CCC(n3c(=O)[nH]c4ccccc43)CC2)c1OC (stereo not drawn) | inactive: 1.86%
2 | CC(=O)N(c1ccccc1)C1CCNCC1 | inactive: -6.17%
3 | COc1cc(OC)cc(C(=O)NCC2(N3CCCCC3)CCCCC2)c1 | inactive: -12.4%
4 | O=c1[nH]c2ccccc2n1C1CCN(C(c2ccnc3ccccc23)c2nnnn2C2CCCCC2)CC1 (stereo not drawn) | inactive: 4.5%
5 | Fc1ccccc1NC1CCN(Cc2ccccc2)CC1 | inactive: -30.9%
6 | Cc1ccc(Nc2c([N+](=O)[O-])cc([N+](=O)[O-])cc2[N+](=O)[O-])cc1 | inactive: -15.9%
7 | Cc1ccc(C(=O)NCC2(N3CCCCC3)CCCCC2)o1 | inactive: 1.75%
8 | Cc1ccc(NC2(C#N)CCN(Cc3ccccc3)CC2)cc1 | inactive: -8.8%
9 | CCN1CCC(Nc2cccc(F)c2)CC1 | inactive: -29.5%
10 | COc1ccc(C(c2nnnn2C2CCCCC2)N2CCC(n3c(=O)[nH]c4ccccc43)CC2)cc1 (stereo not drawn) | inactive: -4.08%
11 | CC(C)(C)n1nnnc1C(c1ccnc2ccccc12)N1CCC(n2c(=O)[nH]c3ccccc32)CC1 (stereo not drawn) | inactive: -0.0228%
12 | Cc1ccccc1NC1(C#N)CCN(Cc2ccccc2)CC1 | inactive: -2.58%
13 | CN(C)c1ccc(C(=O)NCC2(N3CCCCC3)CCCCC2)cc1 | inactive: -9.09%
14 | Cn1c(=O)[nH]cc(N(CCCl)CCCl)c1=O | inactive: -1.64%
15 | O=C(NCC1(N2CCCCC2)CCCCC1)c1ccco1 | inactive: -2.13%
16 | CN1CCC(Nc2ccc(F)c(Cl)c2)CC1 | inactive: -12.5%
17 | CCOc1ncccc1C(=O)NCC1(N2CCOCC2)CCCCC1 | inactive: -23.4%
18 | O=C(O)C1(Nc2ccccc2)CCN(Cc2ccccc2)CC1 | inactive: -9.46%
19 | CC(C)(C)OC(=O)N1CCC(Nc2ccccc2)CC1 | inactive: -2.8%
20 | O=c1[nH]c2ccccc2n1C1CCN(C(c2cc3ccccc3o2)c2nnnn2C2CCCC2)CC1 (stereo not drawn) | inactive: -0.194%
21 | CCCOc1ccc(C(=O)NCC2(N(C)C)CCCCC2)cc1 | inactive: -7.95%
22 | COc1cc(OC)cc(C(=O)NCC2(N3CCOCC3)CCCCC2)c1 | inactive: -9.19%
23 | COc1cccc(C(c2nnnn2C2CCCC2)N2CCC(n3c(=O)[nH]c4ccccc43)CC2)c1OC (stereo not drawn) | inactive: 6.68%
24 | COc1cccc(C(=O)N(c2cc(C)cc(C)c2)C2CCN(C(=O)OC(C)(C)C)CC2)c1 | inactive: -5.47%

Row | SMILES | potentiation
25 | CCC(CO)(C(=O)OC1CN2CCC1CC2)c1ccccc1 (stereo not drawn) | inactive: -4.97%
26 | CN1CCC(Nc2ccc(Cl)cc2)CC1 | inactive: -23.1%
27 | CC(C)(C)OC(=O)N1CCC(N(C(=O)c2ccccc2)c2ccc(F)cc2)CC1 | inactive: -5.66%
28 | COc1ccc(C(=O)NCC2(N3CCCCC3)CCCCC2)c(OC)c1OC | inactive: 4.15%
29 | CCC(c1nnnn1C1CCCC1)N1CCC(n2c(=O)[nH]c3ccccc32)CC1 (stereo not drawn) | inactive: -5.54%
30 | COc1ccc(C(=O)NCC2(N3CCCCC3)CCCCC2)cc1 | inactive: -10.5%
31 | O=C(NCC1(N2CCCCC2)CCCCC1)c1cccs1 | inactive: -37.7%
32 | CCCCn1nnnc1C(CC)N1CCC(n2c(=O)[nH]c3ccccc32)CC1 (stereo not drawn) | inactive: 0.395%
33 | CCCCn1nnnc1C(c1cccs1)N1CCC(n2c(=O)[nH]c3ccccc32)CC1 (stereo not drawn) | inactive: 24.2%
34 | O=C(NCC1(N2CCCCC2)CCCCC1)c1ccc(=O)[nH]c1 | inactive: -6.91%
35 | Cc1cccc(NC2(C#N)CCN(Cc3ccccc3)CC2)c1 | inactive: -34%
36 | CSc1ccccc1C(=O)NCC1(N2CCCCC2)CCCCC1 | inactive: -7.79%
37 | Cc1cc(C)cc(N(C(=O)c2ccccc2)C2CCN(C(=O)OC(C)(C)C)CC2)c1 | inactive: 0.221%
38 | O=C(NCC1(N2CCCCC2)CCCCC1)c1ccc(Cl)nc1 | inactive: -4.28%
39 | O=c1[nH]c2ccccc2n1C1CCN(C(c2ccccc2OC(F)(F)F)c2nnnn2C2CCCCC2)CC1 (stereo not drawn) | inactive: -2.04%
40 | O=C(NCC1(N2CCOCC2)CCCCC1)c1cc2ccccc2o1 | inactive: -15.4%
41 | COc1ccc(Cl)cc1C(=O)NCC1(N2CCOCC2)CCCCC1 | inactive: -27%
42 | O=C1C(O)=C([N+](=O)[O-])C(=O)C(O)=C1[N+](=O)[O-] | inactive: -4.93%
43 | O=C(NCC1(N2CCCCC2)CCCCC1)c1ccc(Cl)s1 | inactive: -33.8%
44 | N#CC1(Nc2ccccc2)CCN(Cc2ccccc2)CC1 | inactive: -3.21%
45 | O=C(OC1CN2CCC1CC2)C1c2ccccc2Oc2ccccc21 (stereo not drawn) | inactive: 1.98%
46 | O=c1[nH]c2ccccc2n1C1CCN(C(c2cc3ccccc3o2)c2nnnn2C2CCCCC2)CC1 (stereo not drawn) | inactive: 4.24%
47 | CCCCn1nnnc1C(c1ccc(OC)cc1)N1CCC(n2c(=O)[nH]c3ccccc32)CC1 (stereo not drawn) | inactive: -7.27%
48 | CCOC(=O)N1CCC(Nc2ccc(OC)cc2)CC1 | inactive: -1.2%

Row | SMILES | potentiation
49 | O=C1CCN(Cc2ccccc2)CC1 | inactive: -39.2%
50 | CC(C)(C)n1nnnc1C(c1ccccc1)N1CCC(n2c(=O)[nH]c3ccccc32)CC1 (stereo not drawn) | inactive: -0.548%
51 | CCOc1ccc(C)cc1CN(CCCl)CCCl | inactive: -27.4%
52 | COc1ccc(NC2CCN(CCc3ccccc3)CC2)c(OC)c1 | inactive: -25%
53 | CCOC(=O)N1CCC(Nc2ccc(F)cc2)CC1 | inactive: -1.32%
54 | CCCCn1nnnc1C(c1cc2ccccc2o1)N1CCC(n2c(=O)[nH]c3ccccc32)CC1 (stereo not drawn) | inactive: 1.28%
55 | O=P1(N(CCCl)CCCl)SCCCS1 | inactive: 8.19%
56 | CCCCOc1ccc(C(=O)NCC2(N3CCOCC3)CCCCC2)cc1 | inactive: -20.8%
57 | O=C(NCC1(N2CCCCC2)CCCCC1)c1ccc(F)cc1 | inactive: -2.65%
58 | O=c1[nH]c2ccccc2n1C1CCN(C(c2ccccc2)c2nnnn2C2CCCCC2)CC1 (stereo not drawn) | inactive: 2.37%
59 | CCOC(=O)N1CCC(Nc2cccc(C)c2)CC1 | inactive: 8.99%
60 | COc1cc(C(=O)NCC2(N(C)C)CCCCC2)ccc1OC(F)F | inactive: -18.9%
61 | O=c1[nH]c2ccccc2n1C1CCN(C(c2cccc3ccccc23)c2nnnn2C2CCCC2)CC1 (stereo not drawn) | inactive: -9.66%
62 | O=C(NCC1(N2CCCCC2)CCCCC1)c1ccc(OC(F)F)cc1 | inactive: -6.25%
63 | CC(C)(C)n1nnnc1C(c1ccccc1OC(F)(F)F)N1CCC(n2c(=O)[nH]c3ccccc32)CC1 (stereo not drawn) | inactive: 1.67%
64 | O=c1[nH]c2ccccc2n1C1CCN(C(c2ccccc2OC(F)(F)F)c2nnnn2C2CCCC2)CC1 (stereo not drawn) | inactive: -0.38%
65 | N#CC1(Nc2ccccc2)CCN(CCc2ccccc2)CC1 | inactive: -7.53%
66 | CCN1CCC(Nc2ccc(Cl)cc2)CC1 | inactive: -1.51%
67 | O=C(NCC1(N2CCCCC2)CCCCC1)c1cccc([N+](=O)[O-])c1 | inactive: -9.75%
68 | CSc1ccc(C(=O)NCC2(N3CCOCC3)CCCCC2)cc1 | inactive: 11.9%
69 | O=[N+]([O-])c1cc([N+](=O)[O-])c(NCC2CCS(=O)(=O)C2)c([N+](=O)[O-])c1 (stereo not drawn) | inactive: 1.63%
70 | O=C(NCC1(N2CCCCC2)CCCCC1)c1cccc(C(F)(F)F)c1 | inactive: -8.94%
71 | COc1cc(C(=O)NCC2(N3CCCCC3)CCCCC2)ccc1OC(F)F | inactive: -20.5%
72 | O=C(NCC1(N2CCOCC2)CCCCC1)c1cc(=O)[nH]c2ccccc12 | inactive: 5.42%

Row | SMILES | potentiation
73 | CN1CCN(CCOC(=O)C(O)(c2ccccc2)c2ccccc2)CC1 | inactive: -10%
74 | CC(C)c1ccc(C(=O)NCC2(N3CCOCC3)CCCCC2)cc1 | inactive: -25.3%
75 | COc1ccc(NC2CCN(C(=O)OC(C)(C)C)CC2)cc1 | inactive: -6.25%
76 | CCCCn1nnnc1C(c1cccc2ccccc12)N1CCC(n2c(=O)[nH]c3ccccc32)CC1 (stereo not drawn) | inactive: -3.88%
77 | CCCCn1nnnc1C(c1ccccc1OC(F)(F)F)N1CCC(n2c(=O)[nH]c3ccccc32)CC1 (stereo not drawn) | inactive: 10.1%
78 | CC(C)c1ccc(NC2CCN(C(=O)OC(C)(C)C)CC2)cc1 | inactive: 0.934%
79 | O=[N+]([O-])c1cc([N+](=O)[O-])c(OC2CCCCC2O)c([N+](=O)[O-])c1 (stereo not drawn) | inactive: -31.4%
80 | CN(C)c1cccc(C(=O)NCC2(N3CCCCC3)CCCCC2)c1 | inactive: -12.7%
81 | COc1ccc(CN(CCCl)CCCl)cc1Cl | inactive: -1.11%
82 | CCC(c1nnnn1C(C)(C)C)N1CCC(n2c(=O)[nH]c3ccccc32)CC1 (stereo not drawn) | inactive: -3.69%
83 | O=C(NCC1(N2CCOCC2)CCCCC1)c1cc(F)c(F)cc1Cl | inactive: 6.41%
84 | COc1cc(OC)c(C(=O)NCC2(N(C)C)CCCCC2)cc1OC | inactive: -27%
85 | CCCCn1nnnc1C(c1ccnc2ccccc12)N1CCC(n2c(=O)[nH]c3ccccc32)CC1 (stereo not drawn) | inactive: -0.952%
86 | O=C(OC1CN2CCC1CC2)c1ccc([N+](=O)[O-])cc1 (stereo not drawn) | inactive: -0.57%
87 | CN1CCC(Nc2cccc(F)c2)CC1 | inactive: -12.1%
88 | COc1ccc2c(c1O)-c1c(O)c(OC)cc3c1[C@H](C2)[N+](C)(C)CC3.O=[N+]([O-])c1cc([N+](=O)[O-])c([O-])c([N+](=O)[O-])c1[O-] | inactive: -5.58%
89 | O=C(NCC1(N2CCCCC2)CCCCC1)c1cncc(Br)c1 | inactive: 0.839%
90 | O=[N+]([O-])c1cc([N+](=O)[O-])c(Nc2ccc(Cl)cc2)c([N+](=O)[O-])c1 | inactive: -18.2%
91 | COc1ccc(C(c2nnnn2C2CCCC2)N2CCC(n3c(=O)[nH]c4ccccc43)CC2)cc1 (stereo not drawn) | inactive: -3.41%
92 | CCCOc1ccc(C(=O)NCC2(N(C)C)CCCCC2)cc1OC | inactive: -18.8%
93 | Cc1ccc(C(=O)NCC2(N(C)C)CCCCC2)o1 | inactive: -3.93%
